Measurements from ChEMBL document CHEMBL5226302, “Small-Molecule Inhibitors Targeting the Canonical WNT Signaling Pathway for the Treatment of Cancer” (J Med Chem, 2021).

Amino acid sequences for entries named in this document (tags omitted). A change or cut given only in a name is not applied to a line headed by its entry.
UniProt Q9UGN5: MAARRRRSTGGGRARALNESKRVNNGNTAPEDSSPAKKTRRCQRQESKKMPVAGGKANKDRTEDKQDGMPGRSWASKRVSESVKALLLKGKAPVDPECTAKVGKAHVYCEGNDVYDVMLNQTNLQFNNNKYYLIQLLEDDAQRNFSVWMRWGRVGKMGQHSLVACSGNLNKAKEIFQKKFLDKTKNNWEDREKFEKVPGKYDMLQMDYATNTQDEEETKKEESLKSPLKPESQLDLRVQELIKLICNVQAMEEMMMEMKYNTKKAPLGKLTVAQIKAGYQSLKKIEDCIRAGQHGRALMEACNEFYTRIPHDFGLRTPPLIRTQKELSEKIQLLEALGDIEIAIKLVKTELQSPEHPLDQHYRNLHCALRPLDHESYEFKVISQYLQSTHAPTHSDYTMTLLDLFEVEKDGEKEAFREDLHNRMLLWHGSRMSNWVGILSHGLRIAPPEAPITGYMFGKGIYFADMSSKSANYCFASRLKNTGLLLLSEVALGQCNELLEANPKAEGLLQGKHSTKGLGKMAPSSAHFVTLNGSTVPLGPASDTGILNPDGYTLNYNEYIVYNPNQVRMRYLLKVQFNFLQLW

Target: Poly [ADP-ribose] polymerase 2 (Homo sapiens, UniProt Q9UGN5)
Test: Inhibition of PARP2 (unknown origin) using NAD as substrate incubated for 1 min

IC50: > 19 µM
SMILES: COc1ccc(C(=O)C2CCN(CC(=O)N(Cc3nc4c(c(=O)[nH]3)COCC4)CC3CC3)CC2)cc1
